Data taken from PubChem BioAssay AID652025 (National Center for Advancing Translational Sciences (NCATS), 2013).
Only a part is listed here, and it is no random draw. Calls of active or inactive are those of the source. Rule as the data show it: active = activation above about 50%; inconclusive = mostly about 30% to 49%; inactive = weaker than that.

Test: qHTS of IL-2 Activators; also: 0% is about no effect
Conditions: IL-2 activation reporter assay, cell-based qHTS; stronger effect = higher value; in transgenic mouse T cells; stimulated with anti-CD3/CD4/CD28 beads
Procedure, shortened: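 Screening format: compound pinned onto unstimulated transgenic mouse T cells, 60 min incubation, then anti-CD3/anti-CD4/anti-CD28 bead stimulation for 18 hours at 37 degrees C, followed by EGFP and DsRed detection.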

Structure (SMILES)	activation
CC(C)c1nc(Nc2ccccc2)n(P(=O)(N(C)C)N(C)C)n1	inactive: 1.38%
COc1ccc(C2=NCC(CBr)S2)cc1 (centres undefined)	inactive: -1.39%
O=[N+]([O-])c1cc([N+](=O)[O-])c(CCNc2ccccc2)c([N+](=O)[O-])c1	inactive: -0.319%
CCc1nc2c(n1)c1c(non1O)c1c2no[n+]1[O-]	inactive: -0.648%
Cc1ccc(NP(=O)(Oc2ccccc2)Oc2ccccc2)nc1	inactive: -1.68%
CC(=O)N1C2C3N(C(C)=O)C1C1N(C(C)=O)C(C(N1C(C)=O)N3C(C)=O)N2C(C)=O	inactive: 0.0937%
O=[N+]([O-])c1cccc2n[nH]nc12	inactive: -0.286%
O=P(Nc1nccs1)(c1ccccc1)c1ccccc1	inactive: -0.494%
CC(C)C(=O)NC(Sc1ccccc1)C(Cl)(Cl)Cl (centres undefined)	inactive: -4.42%
c1nnnn1CCn1cnnn1	inactive: -0.755%
O=[As](O)(c1ccccc1)c1ccc(O)cc1	inactive: -2.55%
CC(=O)NC(SC(=S)N(C)C)C(Cl)(Cl)Cl (centres undefined)	inactive: -0.469%
O=[N+]([O-])c1ncn(CCn2cnc([N+](=O)[O-])n2)n1	inactive: -4.13%
O=[N+]([O-])c1ccc(O)c(/C=N/Nc2ccc([N+](=O)[O-])cc2[N+](=O)[O-])c1	inactive: -1.08%
O=C(OC1CN2CCC1CC2)c1cccc(Cl)c1 (centres undefined)	inactive: -1.95%
Nc1ccc([As](=O)(O)c2ccc([N+](=O)[O-])cc2)cc1	inactive: 1.28%
C(Cc1nn[nH]n1)Cc1nn[nH]n1	inactive: 0.96%
CN(C)C1(CNC(=O)c2ccc(Cl)c(S(N)(=O)=O)c2)CCCCC1	inactive: -3.18%
O=P(Nc1ccccn1)(c1ccc(Br)cc1)c1ccc(Br)cc1	inactive: -1.8%
Nc1ccc(CCCCOc2ccccc2)cc1	inactive: -0.107%
COc1ccc(N)c([N+](=O)[O-])c1[N+](=O)[O-]	inactive: 0.996%
C[C@H]1OP(=O)(Oc2ccccc2)[C@H](O)[C@H](O)[C@H]1N=[N+]=[N-] (some centres undefined)	inactive: 0.206%
O=P(Nc1nc2ccccc2s1)(c1ccccc1)c1ccccc1	inactive: 4.39%
CCC(=O)N1C2C3N(C(=O)CC)C1C1N(C(=O)CC)C(C(N1C(=O)CC)N3C(=O)CC)N2C(=O)CC	inactive: -0.501%
O=C(OC1CN2CCC1CC2)c1ccccc1 (centres undefined)	inactive: -3.95%

Structure (SMILES)	activation
CC(=O)NC(SC(=S)N(CC(C)C)CC(C)C)C(Cl)(Cl)Cl (centres undefined)	inactive: 1.2%
Cc1ccc(OP(=O)(Nc2ccccn2)Oc2ccc(C)cc2)cc1	inactive: -0.71%
COC(=O)c1cc2c(s1)N=C(c1ccccc1)N(C)P2(=O)N1CCOCC1 (centres undefined)	inactive: 0.0574%
CN(C)C(=O)Oc1noc2ccccc12	inactive: 1.21%
O=c1c2cc([N+](=O)[O-])ccc2[nH]c2c([N+](=O)[O-])cc([N+](=O)[O-])cc12	inactive: -0.746%
Cc1ccccc1OP(=O)(Nc1ccccn1)Oc1ccccc1C	inactive: 0.339%
CC(NC(=O)COC(=O)C(O)(c1ccccc1)c1ccccc1)c1ccccc1 (centres undefined)	inactive: 0.462%
Cc1ccc(NP(=O)(Oc2cccc(C)c2)Oc2cccc(C)c2)nc1	inactive: -0.422%
c1ccc(-c2nn[nH]n2)c(-c2nn[nH]n2)c1	inactive: -0.0633%
O=C(NC1CCS(=O)(=O)C1)NP(=S)(Oc1ccccc1)Oc1ccccc1 (centres undefined)	inactive: -1.2%
CCNC(=S)/N=C(\N)N[N+](=O)[O-]	inactive: -1.2%
O=P1(N(CCCl)CCCl)OCCC2CCCCN21 (centres undefined)	inactive: 1.19%
C[C@@H]1C=CCP(=O)(Oc2ccccc2)O1 (some centres undefined)	inactive: -0.343%
C[C@H]1OP(=O)(Oc2ccccc2)C[C@@H]2O[C@@H]21 (some centres undefined)	inactive: -0.316%
Cc1ccccc1CN(C)C(=O)COC(=O)C(O)(c1ccccc1)c1ccccc1	inactive: -0.128%
COC(=O)C1(C)COP(=O)(NCc2ccccc2)OC1 (centres undefined)	inactive: -2.75%
N#C/C(=C\c1ccc(N(CCBr)CCBr)cc1)C(N)=O	inactive: -6.17%
CC(=O)c1ccc(N2CC2c2ccncc2)cc1 (centres undefined)	inactive: 0.302%
CC(=O)Nc1ccc(Oc2c([N+](=O)[O-])cc([N+](=O)[O-])cc2[N+](=O)[O-])cc1	inactive: -0.158%
CC(=O)Nc1ccc([As](=O)(O)O)c(O)c1	inactive: 0.0314%
CCOc1ccc(C2=NCC(CBr)S2)cc1 (centres undefined)	inactive: -0.305%
O=P1(Nc2nc3ccc(Cl)cc3s2)COc2ccccc2O1 (centres undefined)	inactive: -1.65%
CC(C)(C)C(=O)NC(Sc1ccccc1)C(Cl)(Cl)Cl (centres undefined)	inactive: 1.84%
CCc1cc(O)c([N+](=O)[O-])c(C)c1[N+](=O)[O-]	inactive: -0.245%
